Earlier results, collected in patent publication US20240050531A1, “A METHOD FOR REVERSING AGING BRAIN FUNCTIONAL DECLINE” (THE CHINESE UNIVERSITY OF HONG KONG, priority 2020, published 2024).

Target: T1, GLP-1R (Rattus norvegicus, UniProt P32301)
T1 construct: host or cells: living rats (8 weeks old), endogenous receptor
T1 sequence (P32301 22-463): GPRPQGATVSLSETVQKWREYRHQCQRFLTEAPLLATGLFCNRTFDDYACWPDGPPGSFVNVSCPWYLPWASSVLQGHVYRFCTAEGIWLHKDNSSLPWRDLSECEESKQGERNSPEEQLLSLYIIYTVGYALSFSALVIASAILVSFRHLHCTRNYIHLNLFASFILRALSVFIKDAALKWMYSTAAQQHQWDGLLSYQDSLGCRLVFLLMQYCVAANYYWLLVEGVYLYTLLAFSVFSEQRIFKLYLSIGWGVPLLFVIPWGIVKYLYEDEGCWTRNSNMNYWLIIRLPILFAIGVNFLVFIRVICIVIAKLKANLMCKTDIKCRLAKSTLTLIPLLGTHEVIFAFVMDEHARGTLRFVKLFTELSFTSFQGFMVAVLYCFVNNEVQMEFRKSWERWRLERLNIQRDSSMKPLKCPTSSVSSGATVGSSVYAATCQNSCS
Conditions: intracerebroventricular (i.c.v) administration, 8 weeks old rats

associative and spatial learning: enhance associative and spatial learning
Substance: Glucagon-like peptide-1 [GLP-1]
